Assay [1] concerns the target T1, ABL1 (64-515) (Homo sapiens (Human), UniProt P00519). Kind of assay: Radio ABL1 (64-515) assay (radiometric filter-binding). Type of assay: biochemical.
In assay [2] the target is T1, ABL1 (64-515). The assay is described as follows: Caliper ABL1 (64-515) assay (microfluidic mobility shift). The format is biochemical.
A further assay deals with Ba/F3-BCR-ABL1-WT cells. The assay is described as follows: cells. The following applies: Mus musculus, 48 h, read-out: Ba/F3-BCR-ABL1-WT IC50 [μM].
Another assay concerns BCR-ABL1+KCL-22 cells. Kind of assay: Acquired resistance in BCR-ABL1+KCL-22 cells in vitro. The following applies: cells treated every 3-4 days. The format is cell-based.

Sequences of proteins named here, by UniProt entry; tags and fusion partners are left off. Residues count along the entry.
UniProt P00519, 64-515: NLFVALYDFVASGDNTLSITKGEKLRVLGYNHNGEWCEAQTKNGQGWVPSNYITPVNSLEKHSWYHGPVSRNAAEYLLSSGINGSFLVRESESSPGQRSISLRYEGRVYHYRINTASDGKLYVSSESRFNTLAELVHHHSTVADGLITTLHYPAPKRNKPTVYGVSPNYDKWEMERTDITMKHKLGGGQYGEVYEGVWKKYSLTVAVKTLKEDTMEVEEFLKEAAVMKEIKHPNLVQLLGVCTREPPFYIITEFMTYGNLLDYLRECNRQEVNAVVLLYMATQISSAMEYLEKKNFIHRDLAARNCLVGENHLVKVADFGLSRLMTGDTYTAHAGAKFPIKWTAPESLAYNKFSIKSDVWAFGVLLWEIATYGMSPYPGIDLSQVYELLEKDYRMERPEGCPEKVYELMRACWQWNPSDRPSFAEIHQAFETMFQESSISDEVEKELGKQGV

Take `O=C(Nc1ccc(OC(F)(F)F)cc1)c1cnc(N2CCOC(CO)C2)c(-c2cncnc2)c1` (stereo not drawn) [Example 230]: the IC50 at ABL1 (64-515) [1] turned out to be 3.9 nM; on ABL1 (64-515) [2], 6.1 nM.

In the case of `O=C(Nc1ccc(OC(F)(F)F)cc1)c1cnc(N2CC[C@@H](O)C2)c(-c2ccccc2)c1` [Example 57, (R)-6-(3-Hydroxypyrrolidin-1-yl)-5-phenyl-N-(4-(trifluoromethoxy)phenyl)nicotinamide], the IC50 at ABL1 (64-515) [1] came to 7 nM; in the assay with Ba/F3-BCR-ABL1-WT cells it was 0.0066 µM.

Take `CN(CCO)c1ncc(C(=O)Nc2ccc(OC(F)(F)Cl)cc2)cc1-c1cncc(C#N)c1` [Example 181, N-(4-(Chlorodifluoromethoxy)phenyl)-5′-cyano-2-((2-hydroxyethyl)(methyl)amino)-[3,3′-bipyridine]-5-carboxamide]: the figures for the IC50 on ABL1 (64-515) [1], on ABL1 (64-515) [2] and in the assay on Ba/F3-BCR-ABL1-WT cells were 4 nM, 0.2 nM and 0.0014 µM, respectively.

For `CC(C)(O)C1CN(c2ncc(C(=O)Nc3ccc(OC(F)(F)F)cc3)cc2-c2cncnc2)C1` [Example 142, 6-(3-(2-Hydroxypropan-2-yl)azetidin-1-yl)-5-(pyrimidin-5-yl)-N-(4-(trifluoromethoxy)phenyl)nicotinamide], the IC50 on ABL1 (64-515) [1] came to 6 nM; with Ba/F3-BCR-ABL1-WT cells, 0.0089 µM.

`O=C(Nc1ccc(OC(F)(F)Cl)cc1)c1cnc(N2CC(CO)C2)c(-c2cncnc2)c1` [Example 260]: the IC50 at ABL1 (64-515) [1] was found to be 5.1 nM; at ABL1 (64-515) [2] it was 1 nM.

For the compound `Cc1nc(Nc2ncc(C(=O)Nc3c(C)cccc3Cl)s2)cc(N2CCN(CCO)CC2)n1` [dasatinib], the “time until acquired resistance” value in the assay with BCR-ABL1+KCL-22 cells lay within 18 to 21 days.

`COc1ncc(-c2cc(C(=O)Nc3ccc(OC(F)(F)F)cc3)ccc2N2CC[C@@H](O)C2)cn1` [Example 4, (R)-4-(3-Hydroxypyrrolidin-1-yl)-3-(2-methoxypyrimidin-5-yl)-N-(4-(trifluoromethoxy)phenyl)benzamide]: the figures for the IC50 at ABL1 (64-515) [1] and in the assay on Ba/F3-BCR-ABL1-WT cells were 7 nM and 0.0056 µM, respectively.

As for `O=C(Nc1ccc(OC(F)(F)F)cc1)c1ccc(N2CC[C@H](O)C2)c(-c2cncnc2)c1` [Example 1, (S)-4-(3-Hydroxypyrrolidin-1-yl)-3-(pyrimidin-5-yl)-N-(4-(trifluoromethoxy)phenyl)benzamide], the IC50 on ABL1 (64-515) [1] was less than 3 nM.

Regarding `Cc1ncncc1-c1cc(C(=O)Nc2ccc(OC(F)(F)Cl)cc2)cnc1N1C[C@@H](O)[C@H](O)C1` [Example 282, N-(4-(Chlorodifluoromethoxy)phenyl)-6-((3R,4R)-3,4-dihydroxypyrrolidin-1-yl)-5-(4-methylpyrimidin-5-yl)nicotinamide], on ABL1 (64-515) [2], the IC50 amounted to 0.9 nM.

With `COc1ncc(-c2cc(C(=O)Nc3ccc(OC(F)(F)Cl)cc3)cnc2N2CC[C@@H](O)C2)c(OC)n1` [Example 298, (R)—N-(4-(Chlorodifluoromethoxy)phenyl)-5-(2,4-dimethoxypyrimidin-5-yl)-6-(3-hydroxypyrrolidin-1-yl)nicotinamide], the IC50 on ABL1 (64-515) [2] worked out at 2 nM; with Ba/F3-BCR-ABL1-WT cells it was 0.0022 µM.

Consider `O=C(Nc1ccc(OC(F)(F)C(F)F)cc1)c1cnc(N2CC[C@@H](O)C2)c(-c2cncc(F)c2)c1` [Example 212, (R)-5′-Fluoro-2-(3-hydroxypyrrolidin-1-yl)-N-(4-(1,1,2,2-tetrafluoroethoxy)phenyl)-[3,3′-bipyridine]-5-carboxamide], for which the results for the IC50 on ABL1 (64-515) [1], on ABL1 (64-515) [2] and with Ba/F3-BCR-ABL1-WT cells were 7 nM, 11 nM and 0.047 µM, respectively.

For `O=C(Nc1ccc([S+]([O-])C(F)(F)F)cc1)c1cnc(N2CC[C@@H](O)C2)c(-c2cncc(F)c2)c1` (stereo partly drawn) [Example 222, 5′-Fluoro-2-((R)-3-hydroxypyrrolidin-1-yl)-N-(4-((trifluoromethyl)sulfinyl)phenyl)-[3,3′-bipyridine]-5-carboxamide], the IC50 at ABL1 (64-515) [1] was found to be 11 nM; at ABL1 (64-515) [2] it was 15 nM; in the assay on Ba/F3-BCR-ABL1-WT cells it was 0.0435 µM.

For the compound `O=C(Nc1ccc(OC(F)(F)F)cc1)c1ccc(N2CC[C@@H](O)C2)c(-c2cncnc2)c1` [Example 2, (R)-4-(3-Hydroxypyrrolidin-1-yl)-3-(pyrimidin-5-yl)-N-(4-(trifluoromethoxy)phenyl)benzamide], the IC50 is less than 3 nM at ABL1 (64-515) [1] and 0.0024 µM in the assay with Ba/F3-BCR-ABL1-WT cells.

`O=C(Nc1ccc(SC(F)(F)F)cc1)c1cnc(N2CC[C@@H](O)C2)c(-c2cncc(F)c2)c1` [Example 187, (R)-5′-Fluoro-2-(3-hydroxypyrrolidin-1-yl)-N-(4-((trifluoromethyl)thio)phenyl)-[3,3′-bipyridine]-5-carboxamide]: the IC50 on ABL1 (64-515) [1] came out at 4 nM; on ABL1 (64-515) [2], 0.2 nM; in the assay on Ba/F3-BCR-ABL1-WT cells it was 0.0008 µM.

On to `O=C(Nc1ccc(C(F)(F)C(F)(F)Cl)cc1)c1cnc(N2CC[C@@H](O)C2)c(-c2cncnc2)c1` [Example 278, (R)—N-(4-(2-Chloro-1,1,2,2-tetrafluoroethyl)phenyl)-6-(3-hydroxypyrrolidin-1-yl)-5-(pyrimidin-5-yl)nicotinamide], for which the IC50 was found to be 1 nM on ABL1 (64-515) [1], 0.5 nM at ABL1 (64-515) [2] and 0.0009 µM with Ba/F3-BCR-ABL1-WT cells.

With `Cc1ncncc1-c1cc(C(=O)Nc2ccc(OC(F)(F)Cl)cc2)cnc1N1C[C@H](O)[C@@H](O)C1` [Example 283, N-(4-(Chlorodifluoromethoxy)phenyl)-6-((3S,4S)-3,4-dihydroxypyrrolidin-1-yl)-5-(4-methylpyrimidin-5-yl)nicotinamide], in the assay on Ba/F3-BCR-ABL1-WT cells, the IC50 came out at 0.0216 µM.

For the origin of these results see US9278981B2, “Compounds and compositions for inhibiting the activity of ABL1, ABL2 and BCR-ABL1” (Novartis AG, priority 2012, dated 2016).
